Results taken from BindingDB's records for PubMed 1356154 (Dupont Pharmaceuticals, 1992).
pKi: −log10 of the molar value.

Sequences of proteins named here, by UniProt entry; tags and fusion partners are left off.
UniProt P61169, whole entry: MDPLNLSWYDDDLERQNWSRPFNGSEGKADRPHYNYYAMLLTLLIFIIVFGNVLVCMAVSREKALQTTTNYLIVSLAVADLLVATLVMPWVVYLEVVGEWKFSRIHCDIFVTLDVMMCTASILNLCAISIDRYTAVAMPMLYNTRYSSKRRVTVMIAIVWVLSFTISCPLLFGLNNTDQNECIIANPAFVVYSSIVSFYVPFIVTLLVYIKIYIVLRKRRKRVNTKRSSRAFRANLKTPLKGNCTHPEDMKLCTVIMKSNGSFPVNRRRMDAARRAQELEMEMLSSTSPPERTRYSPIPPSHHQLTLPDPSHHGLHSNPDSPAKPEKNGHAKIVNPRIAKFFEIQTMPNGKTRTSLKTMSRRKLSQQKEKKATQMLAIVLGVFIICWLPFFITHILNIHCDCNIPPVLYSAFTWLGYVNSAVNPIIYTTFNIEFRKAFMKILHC

Biological target: D(2) dopamine receptor (Rattus norvegicus, UniProt P61169)

pKi: 7.82
SMILES: CN1CCc2cccc3c2[C@H]1Cc1ccc(O)c(O)c1-3 [APOKYN]
